The values below come from ChEMBL document CHEMBL1125119, “Pyrroloisoquinoline antidepressants. 3. A focus on serotonin” (J Med Chem, 1990).

The target of this experiment is serotonin transporter (Rattus norvegicus). The experiment is described as follows: Tested in vitro for serotonin(5-HT) neuronal uptake inhibition.
In the case of `NC(=O)c1ccc(C2CN3CCCC3c3ccccc32)cc1` (stereo not drawn), affinity was put at a Ki of 19.1 nM.
In the case of `FC(F)(F)c1ccc(C2CN3CCCC3c3ccccc32)cc1` (stereo not drawn) it was 4.8 nM.
Take `Clc1ccc(C2CN3CCCC3c3cc(Cl)ccc32)cc1` (stereo not drawn): the Ki (commonly the equilibrium dissociation constant of an inhibitor or competing ligand from its target) is 2.9 nM.
